Assays:
[1] = molecular target: DPP9; assay: DPP9 IC50, purified enzyme, substrate Ala-Pro-p-nitroanilide; format: biochemical; conditions: read-out: IC50 DPP9
[2] = molecular target: FAP (Mus musculus (Mouse), UniProt P97321); assay: FAP IC50, purified enzyme, substrate Ala-Pro-p-nitroanilide; format: biochemical, murine
[3] = molecular target: DPP IV (Homo sapiens (Human), UniProt P27487); assay: DPP IV IC50, purified enzyme, substrate Gly-Pro-p-nitroanilide; format: biochemical; conditions: read-out: IC50 DPPIV

The chains behind the UniProt entries cited, without tags or fusion partners. Residues count along the entry.
UniProt P97321, 26-761 limits assumed: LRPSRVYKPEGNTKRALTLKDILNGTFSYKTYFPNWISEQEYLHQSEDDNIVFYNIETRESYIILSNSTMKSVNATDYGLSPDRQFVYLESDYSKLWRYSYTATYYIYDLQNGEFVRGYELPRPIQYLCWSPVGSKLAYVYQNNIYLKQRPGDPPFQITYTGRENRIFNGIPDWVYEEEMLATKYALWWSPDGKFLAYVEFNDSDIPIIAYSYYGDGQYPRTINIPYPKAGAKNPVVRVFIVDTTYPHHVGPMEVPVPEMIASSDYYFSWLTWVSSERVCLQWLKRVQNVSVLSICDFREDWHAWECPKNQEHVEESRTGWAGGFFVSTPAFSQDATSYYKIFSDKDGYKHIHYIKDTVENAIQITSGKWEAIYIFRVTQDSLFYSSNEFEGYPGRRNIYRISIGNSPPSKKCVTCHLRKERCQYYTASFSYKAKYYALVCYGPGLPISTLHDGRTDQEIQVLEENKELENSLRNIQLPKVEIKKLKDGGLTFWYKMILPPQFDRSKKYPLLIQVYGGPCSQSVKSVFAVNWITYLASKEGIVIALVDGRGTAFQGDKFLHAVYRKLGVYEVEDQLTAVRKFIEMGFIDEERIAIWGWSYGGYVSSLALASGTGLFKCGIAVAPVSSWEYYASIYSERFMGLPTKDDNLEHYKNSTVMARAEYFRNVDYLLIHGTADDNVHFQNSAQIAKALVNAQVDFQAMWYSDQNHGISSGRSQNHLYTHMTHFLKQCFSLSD
UniProt P27487, whole entry: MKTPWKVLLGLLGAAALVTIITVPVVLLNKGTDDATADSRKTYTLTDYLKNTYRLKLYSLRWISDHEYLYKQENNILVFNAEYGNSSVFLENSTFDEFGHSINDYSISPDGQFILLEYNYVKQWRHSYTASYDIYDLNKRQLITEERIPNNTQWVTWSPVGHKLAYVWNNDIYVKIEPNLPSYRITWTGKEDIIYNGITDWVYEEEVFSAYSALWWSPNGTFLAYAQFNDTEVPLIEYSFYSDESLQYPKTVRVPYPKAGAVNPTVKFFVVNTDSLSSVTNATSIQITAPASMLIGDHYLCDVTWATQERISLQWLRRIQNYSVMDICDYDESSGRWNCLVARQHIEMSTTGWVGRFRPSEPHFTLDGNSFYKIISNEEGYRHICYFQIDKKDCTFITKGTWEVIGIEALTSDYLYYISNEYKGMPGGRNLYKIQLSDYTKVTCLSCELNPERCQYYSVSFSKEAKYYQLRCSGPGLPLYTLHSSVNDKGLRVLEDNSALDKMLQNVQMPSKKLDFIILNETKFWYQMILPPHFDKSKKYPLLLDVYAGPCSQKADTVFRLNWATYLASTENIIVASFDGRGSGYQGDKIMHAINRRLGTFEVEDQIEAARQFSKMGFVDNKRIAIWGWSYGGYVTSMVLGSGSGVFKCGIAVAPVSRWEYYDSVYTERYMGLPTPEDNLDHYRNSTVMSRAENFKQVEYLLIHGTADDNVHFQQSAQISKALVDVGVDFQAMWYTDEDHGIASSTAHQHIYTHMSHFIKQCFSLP

Row | Structure (SMILES) | IC50 [1] | Selectivity index FAP/PREP [2] | IC50 [3] | IC50 ([2]; read-out: IC50 FAP)
1 | N#C[C@@H]1CCCN1C(=O)CNC(=O)c1cccc2ccccc12 | > 100 µM |  |  | 
2 | N#C[C@@H]1CCCN1C(=O)CNC(=O)c1c[nH]c2ccccc12 | > 25 µM |  |  | 
3 | N#C[C@@H]1CCCN1C(=O)CNC(=O)c1cc2ccccc2[nH]1 | > 100 µM | > 7 |  | 
4 | N#C[C@@H]1CCCN1C(=O)CNC(=O)c1ccnc2[nH]ccc12 | > 100 µM |  | > 100 µM | 0.04 µM

— patent US9346814B2
